# Experimental data reported in patent publication US6303761A, “Triaminepentaacetic acid compound and paramagnetic metal complex prepared from using the compound as ligand” (Department of Health The Executive Yuan, Republic of China, priority 1999, dated 2001).
# Key:
# [1] = Selectivity constant of the ligand for Gd^3+ over Zn^2+; assay type: physicochemical
# [2] = Selectivity constant of the ligand for Gd^3+ over Cu^2+; assay type: physicochemical
# [3] = Selectivity constant of the ligand for Gd^3+ over Ca^2+; assay type: physicochemical
# [4] = assay type: physicochemical; settings: pH 7.4
# [5] = 25.0 ± 0.1° C., aqueous Me4 NNO3, I = 0.10 mol dm^-3
# [6] = 25.0 ± 0.1° C., aqueous Me4 NNO3, I = 0.10 mol dm^-3; remark: listed apart in the source
# [7] = 25.0 ± 0.1° C., aqueous Me4 NNO3, I = 0.10 mol dm^-3; remark: listed apart in the source
# [8] = 25.0 ± 0.1° C., aqueous Me4 NNO3, I = 0.10 mol dm^-3; remark: listed apart in the source
# [9] = physchem; settings: 25.0 ± 0.1° C., aqueous Me4 NNO3, I = 0.10 mol dm^-3
smiles,measurement,setting,value
"O=C(O)CN(CCN(CC(=O)O)CC(=O)O)CCN(CC(=O)O)CC(=O)O [DTPA, diethylenetriaminepentaacetic acid, reference compound]",selectivity constant log K(Gd/Zn),[1],3.76
same,selectivity constant log K(Gd/Cu),[2],1.08
same,selectivity constant log K(Gd/Ca),[3],11.71
same,modified selectivity constant log K sel',[4],7.07
same,log K [GdL]/[Gd][L],[5],22.46
same,log K [CaHL]/[CaL][H],[6],6.11
same,log K [CaL]/[Ca][L],[6],10.75
same,log K [ZnHL]/[ZnL][H],[7],5.60
same,log K [ZnL]/[Zn][L],[7],18.70
same,log K [CuL]/[CuL][H],[8],4.81
same,log K [CuL]/[Cu][L],[8],21.38
same,pKa,"[9]; aqueous me4nno3, first protonation constant log K1^H, [HL]/[L][H]",10.5
same,pKa,"[9]; aqueous me4nno3, fourth protonation constant log K4^H, [H4 L]/[H3 L][H]",2.64
same,pKa,"[9]; aqueous me4nno3, second protonation constant log K2^H, [H2 L]/[HL][H]",8.6
same,pKa,"[9]; aqueous me4nno3, third protonation constant log K3^H, [H3 L]/[H2 L][H]",4.28
